These results are taken from US20070275877A1, “Methods for Treating or Ameliorating Ghrelin-Associated Diseases and Disorders” (AMYLIN PHARMACEUTICALS, INC., priority 2003, published 2007).

A short description of series [1]: Adsorption onto glass container in liquid form. The format is physicochemical. From the text:
However, with regard to amylin, amylin agonist, or amylin antagonist which do have such a tendency when in liquid form, a surfactant should be used in their formulation. These formulations may then be lyophilized. Surfactants frequently cause denaturation of protein, both of hydrophobic disruption and by salt bridge separation. Relatively low concentrations of surfactant may exert a potent denaturing activity, because of the strong interactions between surfactant moieties and the reactive sites on proteins. However, judicious use of this interaction can stabilize proteins against interfacial or surface denaturation. Surfactants which could further stabilize the peptide may optionally be present in the range of about 0.001 to 0.3% (w/v) of the total formulation and include polysorbate 80 (i.e., polyoxyethylene(20) sorbitan monooleate), CHAPS® (i.e., 3-[(3-cholamidopropyl)dimethylammonio] 1-propanesulfonate), Brij® (e.g., Brij 35, which is (polyoxyethylene (23) lauryl ether), poloxamer, or another non-ionic surfactant.

For series [2] the following is noted: treated test animals; e.g., provoking marked hyperlactemia followed by hyperglycemia; cited from earlier work.
The conditions of series [3]: cited from earlier work.

In the case of `CC[C@H](C)[C@H](NC(=O)[C@@H]1CCCN1C(=O)CNC(=O)[C@H](Cc1ccccc1)NC(=O)[C@H](CC(N)=O)NC(=O)[C@H](CC(N)=O)NC(=O)[C@H](CO)NC(=O)[C@H](CO)NC(=O)[C@H](Cc1c[nH]cn1)NC(=O)[C@@H](NC(=O)[C@H](CC(C)C)NC(=O)[C@H](Cc1ccccc1)NC(=O)[C@H](CC(N)=O)NC(=O)[C@H](C)NC(=O)[C@H](CC(C)C)NC(=O)[C@H](CCCNC(=N)N)NC(=O)[C@H](CCC(N)=O)NC(=O)[C@@H](NC(=O)[C@H](C)NC(=O)[C@@H]1CSSC[C@H](NC(=O)[C@@H](N)CCCCN)C(=O)N[C@@H](CC(N)=O)C(=O)N[C@@H]([C@@H](C)O)C(=O)N[C@@H](C)C(=O)N[C@@H]([C@@H](C)O)C(=O)N1)[C@@H](C)O)C(C)C)C(=O)N[C@@H](CC(C)C)C(=O)N1CCC[C@H]1C(=O)N1CCC[C@H]1C(=O)N[C@H](C(=O)N[C@@H](CC(N)=O)C(=O)N[C@H](C(=O)NCC(=O)N[C@@H](CO)C(=O)N[C@@H](CC(N)=O)C(=O)N[C@H](C(=O)N[C@@H](Cc1ccc(O)cc1)C(N)=O)[C@@H](C)O)C(C)C)[C@@H](C)O` [pramlintide, ^25,28,29Pro-h-amylin], the “tendency to adsorb onto the glass in a glass container” value in series [1] is “does not have a tendency to adsorb onto the glass”. Besides, the “amylin activity in vivo” value in series [2] is given as “show amylin activity in vivo”. The “solubility characteristics compared to human amylin” value in series [3] is “more desirable”.
